Patent US20040117125A1, “Drug discovery method and apparatus” (priority 1999, published 2004)

Amino acid sequences for entries named in this document (tags omitted). A change or cut given only in a name is not applied to a line headed by its entry.
UniProt P41145: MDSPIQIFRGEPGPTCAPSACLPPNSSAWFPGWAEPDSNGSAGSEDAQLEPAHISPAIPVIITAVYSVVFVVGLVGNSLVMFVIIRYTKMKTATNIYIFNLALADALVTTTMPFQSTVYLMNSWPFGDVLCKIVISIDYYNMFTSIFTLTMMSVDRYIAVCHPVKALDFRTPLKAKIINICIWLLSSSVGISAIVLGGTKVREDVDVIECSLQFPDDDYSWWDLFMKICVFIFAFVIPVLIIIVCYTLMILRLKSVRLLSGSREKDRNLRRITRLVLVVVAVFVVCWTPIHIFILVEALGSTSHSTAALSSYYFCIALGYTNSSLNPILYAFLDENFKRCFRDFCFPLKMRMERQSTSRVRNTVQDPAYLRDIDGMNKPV
UniProt P41143, whole entry, looked up: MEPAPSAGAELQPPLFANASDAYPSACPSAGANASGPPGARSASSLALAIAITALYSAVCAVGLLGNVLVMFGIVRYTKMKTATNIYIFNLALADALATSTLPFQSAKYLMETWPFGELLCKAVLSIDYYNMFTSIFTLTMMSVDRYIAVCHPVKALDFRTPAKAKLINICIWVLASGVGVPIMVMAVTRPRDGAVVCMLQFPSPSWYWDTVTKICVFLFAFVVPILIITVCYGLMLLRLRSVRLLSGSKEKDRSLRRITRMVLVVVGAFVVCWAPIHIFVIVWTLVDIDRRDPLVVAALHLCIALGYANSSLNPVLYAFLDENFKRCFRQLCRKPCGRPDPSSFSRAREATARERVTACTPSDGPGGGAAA
UniProt P35372, whole entry, looked up: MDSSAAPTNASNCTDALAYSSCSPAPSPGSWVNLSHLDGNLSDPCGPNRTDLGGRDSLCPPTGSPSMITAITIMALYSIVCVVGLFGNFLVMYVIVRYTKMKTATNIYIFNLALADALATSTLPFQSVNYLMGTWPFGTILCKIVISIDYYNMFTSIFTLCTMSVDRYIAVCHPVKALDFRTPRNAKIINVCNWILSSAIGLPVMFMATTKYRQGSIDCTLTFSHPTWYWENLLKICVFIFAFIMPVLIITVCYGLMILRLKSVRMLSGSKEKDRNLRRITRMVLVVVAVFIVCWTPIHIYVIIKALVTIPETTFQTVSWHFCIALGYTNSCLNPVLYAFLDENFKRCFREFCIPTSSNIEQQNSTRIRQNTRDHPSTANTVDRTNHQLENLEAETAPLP

Key:
Details in all cases: initial inhibition
[1] = tested on: Nicotinic, (a-bungaro-toxin insensitive); test: Fluridone panel: Nicotinic, (a-bungaro-toxin insensitive)
Opiate, Kappa = Opiate, Kappa (Homo sapiens, UniProt P41145); test: Fluridone panel: Opiate, Kappa
Opiate, Delta = Opiate, Delta (Homo sapiens, UniProt P41143); test: Fluridone panel: Opiate, Delta
Opiate, Mu = Opiate, Mu (Homo sapiens, UniProt P35372); test: Fluridone panel: Opiate, Mu

## Cn1cc(-c2ccccc2)c(=O)c(-c2cccc(C(F)(F)F)c2)c1
[1]
  Inhibition 10 uM: −6.04%
Opiate, Kappa
  Inhibition 10 uM: −13.89%
Opiate, Delta
  Inhibition 10 uM: 21.50%
Opiate, Mu
  Inhibition 10 uM: 7.75%
